The text below walks through data of patent publication US7094798B1, “Inhibitors of checkpoint kinases (Wee1 and Chk1)” (Pfizer Inc, priority 2002, dated 2006).

In the test the target is T1, human Wee1 kinase aa215-647 (Homo sapiens, UniProt P30291).
T1 construct: human Wee1 kinase aa215-647; purchased Onyx Pharmaceuticals; host or cells: baculovirus protein expression system
T1 sequence (P30291 215-646 limits assumed): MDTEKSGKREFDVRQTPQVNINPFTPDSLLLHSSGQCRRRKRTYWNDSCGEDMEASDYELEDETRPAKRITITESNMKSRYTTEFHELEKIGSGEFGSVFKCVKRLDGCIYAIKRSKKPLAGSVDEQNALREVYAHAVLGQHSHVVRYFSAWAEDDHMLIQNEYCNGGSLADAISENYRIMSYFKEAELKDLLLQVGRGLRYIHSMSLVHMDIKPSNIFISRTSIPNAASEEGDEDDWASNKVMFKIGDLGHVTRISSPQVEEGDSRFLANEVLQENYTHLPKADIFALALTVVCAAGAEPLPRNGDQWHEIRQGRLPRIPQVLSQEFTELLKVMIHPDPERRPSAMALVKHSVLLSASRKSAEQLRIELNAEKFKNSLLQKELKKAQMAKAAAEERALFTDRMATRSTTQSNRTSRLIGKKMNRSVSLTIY
In words: Wee1 inhibition filter binding assay (OY). The note with it: isolated Wee1 kinase, Poly Ornithine:Tyrosine (4:1) substrate; read-out: WEE1OY IC50. Format: biochemical.

What is called IC50 is the concentration that inhibits the measured activity by half. With `CN(C)CCNC(=O)CCn1c2ccc(O)cc2c2c3c(c(-c4ccccc4)cc21)C(=O)NC3=O` [Example 214, N-[2-(Dimethylamino)ethyl]-3-(9-hydroxy-1,3-dioxo-4-phenyl-2,3-dihydropyrrolo[3,4-c]carbazol-6 (1H)-yl)propanamide], the IC50 came to 295 nM.
